From patent US20250129027A1 (APOGEE PHARMACEUTICALS, INC., priority 2023, published 2025)

Chains of the proteins cited; added tags and fusions are not shown.
UniProt O00519, whole entry: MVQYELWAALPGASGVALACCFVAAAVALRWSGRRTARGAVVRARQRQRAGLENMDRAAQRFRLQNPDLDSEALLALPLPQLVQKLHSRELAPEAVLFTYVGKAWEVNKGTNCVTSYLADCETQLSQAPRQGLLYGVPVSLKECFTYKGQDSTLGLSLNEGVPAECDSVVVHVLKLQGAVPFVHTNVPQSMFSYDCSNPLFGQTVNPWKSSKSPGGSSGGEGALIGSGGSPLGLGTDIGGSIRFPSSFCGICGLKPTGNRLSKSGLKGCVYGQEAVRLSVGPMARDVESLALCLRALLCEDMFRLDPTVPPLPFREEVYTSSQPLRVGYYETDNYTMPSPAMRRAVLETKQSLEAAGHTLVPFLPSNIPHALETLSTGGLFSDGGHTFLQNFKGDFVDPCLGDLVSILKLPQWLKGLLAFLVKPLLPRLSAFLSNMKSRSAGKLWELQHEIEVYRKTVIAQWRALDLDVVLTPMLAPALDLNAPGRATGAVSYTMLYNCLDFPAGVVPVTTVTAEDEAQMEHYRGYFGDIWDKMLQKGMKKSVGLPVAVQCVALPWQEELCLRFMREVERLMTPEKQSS

Biological target: human recombinant FAAH (Homo sapiens (Human), UniProt O00519)
Test: In vitro inhibition of FAAH activity (fluorescent inhibitor screening kit, AMC arachidonoyl amide)
Format: biochemical
Settings: read-out: Inhibition on FAAH activity (IC50)

CCCCCCCNC(=O)Oc1cccc(-c2cc(-c3nnco3)ccn2)c1
IC50: 1 to 10 nM
